Experimental data as given in patent publication US10100070B2, “Borate-based base generator, and base-reactive composition comprising such base generator” (FUJIFILM Wako Pure Chemical Corporation, priority 2014, dated 2018).

Assay: Solubility tests to organic solvents and a base-reactive compound
Conditions: 0.1 g compound, ethyl lactate added gradually at room temperature, visual

1,3-dimethyl-2-(N,N′,N″,N″-tetramethylguanidino)-4,5-dihydro-3H-imidazolium triphenyl(n-butyl)borate [Comp. Ex. 10]
Solubility in EL: −− (dissolved only into not less than 10 mL thereof)
